{"source": "patent US20240342239A1", "about": "“TREATMENT OF NON-CYSTIC FIBROSIS BRONCHIECTASIS” (Zambon S.P.A., priority 2021, published 2024)", "system": "subjects with NCFB chronically infected with P. aeruginosa"}
{"substance": "colistimethate sodium [CMS]", "values": [{"measurement": "safety and tolerability", "setting": "CMS by I-neb", "value": "safe and well tolerated"}, {"measurement": "bronchospasm observed", "setting": "clinically or spirometrically determined", "value": 2.8, "unit": "%"}, {"measurement": "antibiotic resistance observed", "setting": "in vivo", "value": 1, "unit": "%"}, {"measurement": "development of P. aeruginosa resistance to colistin sulphate", "setting": "in vivo", "value": 1, "unit": "%"}, {"measurement": "development of colistimethate resistance, active vs placebo groups", "setting": "in vivo", "value": "no data suggestive of development of colistimethate resistance"}, {"measurement": "patients with bronchospasm experienced clinically", "setting": "patients on CMS treatment", "value": 0.6, "unit": "%"}]}
